Source: BindingDB's records for doi:10.1016/0028-3908(93)90181-2 (Boots Pharmaceuticals, 1993)

Protein sequences, listed by entry. Tags and fused reporters are not part of them.
UniProt P31652, whole entry: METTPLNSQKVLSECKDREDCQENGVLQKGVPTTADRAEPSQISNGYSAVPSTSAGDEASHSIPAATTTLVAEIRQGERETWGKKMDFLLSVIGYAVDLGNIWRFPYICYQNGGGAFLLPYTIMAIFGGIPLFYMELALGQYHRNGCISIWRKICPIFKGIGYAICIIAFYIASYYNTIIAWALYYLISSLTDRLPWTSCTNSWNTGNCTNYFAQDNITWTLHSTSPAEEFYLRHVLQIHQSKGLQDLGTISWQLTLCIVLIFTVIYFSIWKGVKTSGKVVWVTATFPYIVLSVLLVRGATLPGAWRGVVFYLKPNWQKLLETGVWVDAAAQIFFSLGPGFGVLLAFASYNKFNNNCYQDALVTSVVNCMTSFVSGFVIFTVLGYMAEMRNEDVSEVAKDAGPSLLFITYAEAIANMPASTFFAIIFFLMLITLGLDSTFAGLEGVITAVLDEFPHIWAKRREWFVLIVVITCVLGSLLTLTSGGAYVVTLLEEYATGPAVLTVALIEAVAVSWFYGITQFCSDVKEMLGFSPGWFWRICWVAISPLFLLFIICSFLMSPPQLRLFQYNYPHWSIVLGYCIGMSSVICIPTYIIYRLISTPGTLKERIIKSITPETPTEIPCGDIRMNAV

target: Sodium-dependent serotonin transporter (Rattus norvegicus, UniProt P31652)

Q: How did the Ki turn out when `N[C@H]1CC[C@@H](c2ccc(Cl)c(Cl)c2)c2ccccc21` was run?
A: The Ki was 2.29 nM.

Q: For `CNCCC=C1c2ccccc2CSc2ccccc21` [CAS_1154-09-2], which Ki is on record?
A: Its Ki is 130 nM.

Q: With `CC(C)CC(N(C)C)C1(c2ccc(Cl)cc2)CCC1` (centres undefined) [CAS_106650-56-0] as the compound, how does the Ki read?
A: Its Ki is 2140 nM.

Q: How did the Ki turn out when `CC(C)CC(N)C1(c2ccc(Cl)cc2)CCC1` (centres undefined) [NSC_134771] was run?
A: Its Ki is 18 nM.
